Laboratory results taken from PMC5100981 (Antiviral research, 2016).

Test system: Enterovirus D68 (US/KY/14-18953 strain)
Experiment: CPE inhibition assay
Type: cell-based
Conditions: for EC50: Enterovirus D
[1] = EVD68, RD, read-out: 50% inhibition of viral cytopathic effect (EC50) and 90% inhibition (EC90) of virus yield, range against EV-D68
[2] = RD, read-out: EC50, 50% effective (virus-inhibitory) concentration

SMILES: Nc1cc2nc[nH]c2c(=O)[nH]1 [3-Deazaguanine, 3-deazaguanine]
- SI, selectivity index (CC50 / EC50): 45
- EC50 [1]: 7 to 13 µM
- EC50 [2]: 8 ± 2.3 µM

SMILES: CC(C)S(=O)(=O)n1c(N)nc2ccc(/C(=N/O)c3ccccc3)cc21 [Enviroxime, enviroxime]
- EC50 [1]: 0.01 to 0.3 µM
- EC50 [2]: 0.31 ± 0.22 µM

SMILES: CCOC(=O)c1ccc(OCCC2CCN(c3ccc(C)nn3)CC2)cc1 [Pirodavir, pirodavir]
- EC50 [1]: 7 to 13 µM
- EC50 [2]: 13 ± 7 µM

SMILES: Cc1cc(CCCOc2c(C)cc(-c3noc(C(F)(F)F)n3)cc2C)on1 [Pleconaril, pleconaril]
- SI, selectivity index (CC50 / EC50): 87
- EC50 [1]: 0.01 to 0.3 µM
- EC50 [2]: 0.13 ± 0.03 µM

SMILES: NC(=O)c1ncn([C@@H]2O[C@H](CO)[C@@H](O)[C@H]2O)n1 [Ribavirin, ribavirin]
- EC50 [1]: 80 to 135 µM
- EC50 [2]: 135 ± 74 µM

SMILES: CCOC(=O)/C=C/[C@H](C[C@@H]1CCNC1=O)NC(=O)[C@@H](CC(=O)[C@@H](NC(=O)c1cc(C)on1)C(C)C)Cc1ccc(F)cc1 [Rupintrivir, rupintrivir]
- SI, selectivity index (CC50 / EC50): 29130
- EC50 [1]: 0.0022 to 0.0053 µM
- EC50 [2]: 0.0046 ± 0.0027 µM

Where two headings read alike, the source gives them in different places.
